# Only a part is listed here, and it is no random draw. Calls of active or inactive are those of the source. How the source made its calls: active means hit-call score of the fitted dose curve at least 0.9, where 1 is the maximum; inactive means score below 0.9.
# Experiments:
# [1] = read-out: Vascular cell adhesion molecule 1 (VCAM1), VCAM1 (gene 7412); assay: BSK_4H_VCAM1: BioMAP Diversity Plus: 4H Assay for Vascular cell adhesion molecule 1 (VCAM1) Biomarker Activity (AID 2283033); details: actives raise or lower the signal; primary human endothelial cells (HUVEC)
# Summary of the method: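 Primary human umbilical vein endothelial cells, 4H stimulation system, treated for 24 h; cell-surface VCAM-1 quantified by ELISA. Bidirectional fitting against DMSO; cytotoxicity tracked by SRB total-protein staining in parallel cultures.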
# [2] = read-out: Monokine induced gamma interferon (MIG), CXCL9 (gene 4283); assay: BSK_BE3C_MIG: BioMAP Diversity Plus: BE3C Assay for Monokine induced gamma interferon (MIG) Biomarker Activity (AID 2283035); details: actives raise or lower the signal; primary human bronchial epithelial cells;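 further: MIG protein measured by ELISA in BE3C cultures after 24 h of dosing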
# Summary of the method: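 Primary human bronchial epithelial cells treated for 24 h; MIG levels measured by ELISA, fitted bidirectionally versus DMSO. Parallel SRB total-protein staining assessed cytotoxicity.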
# [3] = read-out: Transforming growth factor beta 1 (TGFb1), TGFB1 (gene 7040); assay: BSK_BE3C_TGFb1: BioMAP Diversity Plus: BE3C Assay for Transforming growth factor beta 1 (TGFb1) Biomarker Activity (AID 2283036); details: actives raise or lower the signal; primary human bronchial epithelial cells
# Summary of the method: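 Primary human bronchial epithelial cells dosed with chemical; TGF-b1 measured by ELISA 24 h after dosing. Bidirectional curve fitting against DMSO negative control; SRB total-protein staining in parallel cultures gauged cytotoxicity.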
# [4] = read-out: Plasminogen activator inhibitor-1 (PAI1), SERPINE1 (gene 5054); assay: BSK_BE3C_PAI1: BioMAP Diversity Plus: BE3C Assay for Plasminogen activator inhibitor-1 (PAI1) Biomarker Activity (AID 2283037); details: actives raise or lower the signal; primary human bronchial epithelial cells
# Summary of the method: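 Primary human bronchial epithelial cells (BE3C system) exposed 24 h; PAI-1 quantified by ELISA. Parallel sulforhodamine B staining of total protein flags cytotoxicity. Bidirectional fit versus DMSO.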
# [5] = read-out: urokinase plasminogen activator (uPA), PLAU (gene 5328); assay: BSK_BE3C_uPA: BioMAP Diversity Plus: BE3C Assay for urokinase plasminogen activator (uPA) Biomarker Activity (AID 2283038); details: actives raise or lower the signal; primary human bronchial epithelial cells;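 on outcome: uPA protein level quantified by ELISA in cell cultures; uPA read one day after compound addition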
# Summary of the method: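 Using confluent primary human lung bronchial epithelial cultures, we dosed chemicals, waited 24 h, then ran a uPA ELISA, fitting bidirectionally against DMSO.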
# [6] = read-out: Urokinase-type plasminogen activator receptor (uPAR), PLAUR (gene 5329); assay: BSK_BE3C_uPAR: BioMAP Diversity Plus: BE3C Assay for Urokinase-type plasminogen activator receptor (uPAR) Biomarker Activity (AID 2283039); details: actives raise or lower the signal; primary human bronchial epithelial cells;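 further: cells exposed to compound for one day before measurement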
# Summary of the method: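 Primary human bronchial epithelial cells dosed for 24 h; uPAR quantified by ELISA with bidirectional fitting against DMSO. Overt cytotoxicity assessed in parallel cultures by SRB total-protein staining (0.1% SRB, 560 nm).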
# [7] = read-out: Interleukin-6 (IL6), IL6 (gene 3569); assay: BSK_CASM3C_IL6: BioMAP Diversity Plus: CASM3C Assay for Interleukin-6 (IL6) Biomarker Activity for (AID 2283040); details: actives raise or lower the signal; primary human coronary artery smooth muscle cells
# [8] = read-out: Tissue plasminogen activator (tPA), PLAT (gene 5327); assay: BSK_BE3C_tPA: BioMAP Diversity Plus: BE3C Assay for Tissue plasminogen activator (tPA) Biomarker Activity (AID 2283041); details: actives raise or lower the signal; primary human bronchial epithelial cells;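 further: tPA level quantified by ELISA one day after compound addition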
# Summary of the method: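 Primary human bronchial epithelial cells in the BE3C system, exposed to compound for 24 h. tPA was quantified by ELISA; DMSO served as baseline, with gain or loss of signal fitted. Cytotoxicity checked in parallel cultures by SRB total-protein staining.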
# [9] = read-out: Interleukin-8 (IL8), CXCL8 (gene 3576); assay: BSK_CASM3C_IL8: BioMAP Diversity Plus: CASM3C Assay for Interleukin-8 (IL8) Biomarker Activity (AID 2283042); details: actives raise or lower the signal; primary human coronary artery smooth muscle cells;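 further: IL-8 protein level quantified by ELISA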
# [10] = read-out: Human Leukocyte Antigen - DR isotype (HLADR), HLA-DRA (gene 3122); assay: BSK_CASM3C_HLADR: BioMAP Diversity Plus: CASM3C Assay for Human Leukocyte Antigen - DR isotype (HLADR) Biomarker Activity (AID 2283043); details: actives raise or lower the signal; primary human coronary artery smooth muscle cells;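 further: cell-surface HLA-DR protein level quantified by ELISA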
# [11] = read-out: Macrophage colony-stimulating factor (MCSF), CSF1 (gene 1435); assay: BSK_CASM3C_MCSF: BioMAP Diversity Plus: CASM3C Assay for Macrophage colony-stimulating factor (MCSF) Biomarker Activity (AID 2283044); details: actives raise or lower the signal; primary human coronary artery smooth muscle cells;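 further: M-CSF protein amount quantified by ELISA after 24 h exposure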
# [12] = read-out: Low-density lipoprotein receptor (LDLR), LDLR (gene 3949); assay: BSK_CASM3C_LDLR: BioMAP Diversity Plus: CASM3C Assay for Low-density lipoprotein receptor (LDLR) Biomarker Activity (AID 2283045); details: actives raise or lower the signal; primary human coronary artery smooth muscle cells;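 further: LDLR protein level on the cell surface quantified by ELISA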
# [13] = read-out: Monocyte Chemoattractant Protein-1 (MCP1), CCL2 (gene 6347); assay: BSK_CASM3C_MCP1: BioMAP Diversity Plus: CASM3C Assay for Monocyte Chemoattractant Protein-1 (MCP1) Biomarker Activity (AID 2283046); details: actives raise or lower the signal; primary human coronary artery smooth muscle cells;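 further: MCP-1 level quantified by ELISA 24 h after dosing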
# [14] = BSK_CASM3C_Proliferation: Cell Proliferation Assessment in the BioMAP Diversity Plus: CASM3C Assay (AID 2283047); details: primary human coronary artery smooth muscle cells;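 further: sulforhodamine B total protein stain as relative cell number at 560 nm; sub-confluent cells exposed 48 h before staining; fitted both ways against DMSO so gain or loss of cell number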
# [15] = read-out: Monokine induced gamma interferon (MIG), CXCL9 (gene 4283); assay: BSK_CASM3C_MIG: BioMAP Diversity Plus: CASM3C Assay for Monokine induced gamma interferon (MIG) Biomarker Activity (AID 2283048); details: actives raise or lower the signal; primary human coronary artery smooth muscle cells
# [16] = read-out: serum amyloid A (SAA), SAA1 (gene 6288); assay: BSK_CASM3C_SAA: BioMAP Diversity Plus: CASM3C Assay for serum amyloid A (SAA) Biomarker Activity (AID 2283049); details: actives raise or lower the signal; primary human coronary artery smooth muscle cells;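 further: SAA protein level quantified by ELISA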
# [17] = BSK_CASM3C_SRB: Viability Assessment in the BioMAP Diversity Plus: CASM3C Assay (AID 2283050); details: primary human coronary artery smooth muscle cells
# [18] = read-out: Thrombomodulin, THBD (gene 7056); assay: BSK_CASM3C_Thrombomodulin: BioMAP Diversity Plus: CASM3C Assay for Thrombomodulin Biomarker Activity (AID 2283051); details: actives raise or lower the signal; primary human coronary artery smooth muscle cells;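 further: thrombomodulin protein level measured by ELISA 24 h after dosing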
# [19] = read-out: Tissue Factor, F3 (gene 2152); assay: BSK_CASM3C_TissueFactor: BioMAP Diversity Plus: CASM3C Assay for Tissue Factor Biomarker Activity (AID 2283052); details: actives raise or lower the signal; primary human coronary artery smooth muscle cells;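 further: cell surface tissue factor protein level read by ELISA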
# [20] = read-out: Interferon-gamma inducible Protein 10 (IP10), CXCL10 (gene 3627); assay: BSK_BE3C_IP10: BioMAP Diversity Plus: BE3C Assay for Interferon-gamma inducible Protein 10 (IP10) Biomarker Activity (AID 2283034); details: actives raise or lower the signal; primary human bronchial epithelial cells
# Summary of the method: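 Primary human bronchial epithelial cells, with IP-10 measured by ELISA 24 hours after chemical dosing. Bidirectional fit against DMSO; cytotoxicity checked by SRB total protein staining in parallel cultures.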
smiles,measurement,setting,value
Cc1ccc([N+](=O)[O-])c([N+](=O)[O-])c1,AC50,[1],active: 6.18 µM
same,outcome,[2],inactive
same,outcome,[3],inactive
same,outcome,[4],inactive
same,AC50,[5],active: 0.394 µM
same,outcome,[6],inactive
same,outcome,[7],inactive
same,outcome,[8],inactive
same,outcome,[9],inactive
same,outcome,[10],inactive
same,outcome,[11],inactive
same,outcome,[12],inactive
same,outcome,[13],inactive
same,outcome,[14],inactive
same,outcome,[15],inactive
same,outcome,[16],inactive
same,outcome,[17],inactive
same,outcome,[18],inactive
same,outcome,[19],inactive
Cc1c([N+](=O)[O-])cccc1[N+](=O)[O-],outcome,[1],inactive
same,outcome,[20],inactive
same,outcome,[2],inactive
same,outcome,[3],inactive
same,outcome,[4],inactive
same,outcome,[5],inactive
same,outcome,[6],inactive
same,outcome,[7],inactive
same,outcome,[8],inactive
same,outcome,[9],inactive
same,outcome,[10],inactive
same,outcome,[11],inactive
same,outcome,[12],inactive
same,outcome,[13],inactive
same,outcome,[14],inactive
same,outcome,[15],inactive
same,outcome,[16],inactive
same,outcome,[17],inactive
same,outcome,[18],inactive
same,outcome,[19],inactive
CC(C)OP(C)(=O)OC(C)C,outcome,[1],inactive
same,outcome,[20],inactive
same,outcome,[2],inactive
same,outcome,[3],inactive
same,outcome,[4],inactive
same,outcome,[5],inactive
same,outcome,[6],inactive
same,outcome,[7],inactive
same,outcome,[8],inactive
same,outcome,[9],inactive
same,AC50,[10],active: 14 µM
same,outcome,[11],inactive
same,AC50,[12],active: 20 µM
same,outcome,[13],inactive
same,AC50,[14],active: 20 µM
same,outcome,[15],inactive
same,outcome,[16],inactive
same,outcome,[17],inactive
same,outcome,[18],inactive
same,outcome,[19],inactive
Cc1ccc([N+](=O)[O-])cc1[N+](=O)[O-],outcome,[1],inactive
same,outcome,[20],inactive
same,outcome,[2],inactive
same,outcome,[3],inactive
same,outcome,[4],inactive
same,outcome,[5],inactive
same,outcome,[6],inactive
same,outcome,[7],inactive
same,outcome,[8],inactive
same,outcome,[9],inactive
same,outcome,[10],inactive
same,outcome,[11],inactive
same,outcome,[12],inactive
same,outcome,[13],inactive
same,outcome,[14],inactive
same,outcome,[15],inactive
same,outcome,[16],inactive
same,outcome,[17],inactive
same,outcome,[18],inactive
same,outcome,[19],inactive
O=[N+]([O-])c1cccc([N+](=O)[O-])c1,outcome,[1],inactive
same,outcome,[20],inactive
same,outcome,[2],inactive
same,outcome,[3],inactive
same,outcome,[4],inactive
same,outcome,[5],inactive
same,outcome,[6],inactive
same,outcome,[7],inactive
same,outcome,[8],inactive
same,outcome,[9],inactive
same,outcome,[10],inactive
same,outcome,[11],inactive
same,outcome,[12],inactive
same,outcome,[13],inactive
same,outcome,[14],inactive
same,outcome,[15],inactive
same,outcome,[16],inactive
same,outcome,[17],inactive
same,outcome,[18],inactive
same,outcome,[19],inactive
Cc1cccc([N+](=O)[O-])c1[N+](=O)[O-],AC50,[1],active: 5.37 µM
same,outcome,[20],inactive
same,outcome,[2],inactive
same,outcome,[3],inactive
same,outcome,[4],inactive
same,outcome,[5],inactive
same,outcome,[6],inactive
same,outcome,[7],inactive
same,outcome,[8],inactive
same,outcome,[9],inactive
same,AC50,[10],active: 8.93 µM
same,outcome,[11],inactive
same,outcome,[12],inactive
same,outcome,[13],inactive
same,AC50,[14],active: 14.3 µM
same,outcome,[15],inactive
same,outcome,[16],inactive
same,outcome,[17],inactive
same,outcome,[18],inactive
same,outcome,[19],inactive
